The experiment relates to Src. Nature of the experiment: Western blot, phosphorylation of Src in H1944 and A549 cells. The class given is cell-based, human. The conditions noted are these: 50 nM monotherapy, 1 day. In general terms: A western blot detects proteins with antibodies after separation by electrophoresis.

The structures appear in SMILES notation.

Regarding `Cc1nc(Nc2ncc(C(=O)Nc3c(C)cccc3Cl)s2)cc(N2CCN(CCO)CC2)n1` [Dasatinib, dasatinib], the “phosphorylation of Src” value was “suppressed phosphorylation”.

The values above are taken from paper PMC7778606, “Development of the phenylpyrazolo[3,4-d]pyrimidine-based, insulin-like growth factor receptor/Src/AXL-targeting small molecule kinase inhibitor” (Theranostics, 2021).
